Legend:
[1] = literature value, supplement ref 3; cited from earlier work
[2] = Half-lives in pooled human plasma at 37°C; format: in vitro ADME; conditions: 100% (undiluted) pooled human plasma, 100% pooled human plasma, [ASA]0 = 560 µM
Method: As a measure of the drug release rate in the systemic blood circulation, we determined the half‐lives of 15, 16, and 23–26 in pooled human plasma. […] This illustrates that the drug release kinetics in human plasma are highly dependent upon the chosen acyl residue, which allows for tailoring the prodrug's pharmacokinetic profile to the therapeutic requirements. To assess the contribution of nonspecific hydrolysis to the observed kinetics, we incubated the prodrugs at the same concentration in the buffer used to dilute the plasma samples.
The kinetic studies were carried out by following the loss of substrate under the indicated conditions using HPLC‐UV. Pooled human plasma was obtained commercially (Biowest, France), while human saliva was freshly collected with the written informed consent of the saliva donors. […] Pseudo‐first‐order rate constants for the observed degradation were determined from the slope of linear plots of ln(peak area) versus time. […]
^a The release kinetics of the prodrugs were evaluated in vitro in analogy to the precedent literature.^[1] […] The samples were immediately quenched with acetonitrile (2:1), centrifuged, decanted, and analyzed via HPLC-UV. Half-lives were determined assuming first-order kinetics; specific values are the mean of triplicates ± standard deviation. […]

CC(=O)Oc1ccccc1C(=O)O [ASA, Acetylsalicylic acid, reference compound]
t1/2 (lit.) in human plasma [1]: 2.17 ± 0.8 h
half-life at 560 µM [2]: 2.43 ± 0.317 h

— paper PMC12287680, “Efficient Acyloxymethylation of Psilocin and Other Tryptamines Yielding ACOM Prodrugs for Psychedelic‐Assisted Therapy” (Archiv Der Pharmazie, 2025)
